Experimental data from patent publication US20230072955A1 (EXUMA BIOTECH, published 2023).

B1: VH-G056K/VL-A032D (antibody, V domains shown)
VH: [about 120 residues with changes skipped]
VL: DIQMTQSPSSLSASVGDRVTITCRASQDVNTDVAWYQQKPGKAPKLLIYSASFLYSGVPSRFSGSRSGTDFTLTISSLQPEDFATYYCQQHYTTPPTFGQGTKVEIK
notes: also called G056K/A032D
B2: VH-N028W/VL-A032D (antibody, V domains shown)
VH: [about 120 residues with changes skipped]
VL: B1 VL
B3: VH-N055A/VL-A032D (antibody, V domains shown)
VH: [about 120 residues with changes skipped]
VL: B1 VL
B4: VH-S119E/VL-A032D (antibody, V domains shown)
VH: [about 120 residues with changes skipped]
VL: B1 VL
B5: VH-T058D/VL-A032D (antibody, V domains shown)
VH: [about 120 residues with changes skipped]
VL: B1 VL
notes: also called T058D/A032D
B6: VH-Y052D/VL-A032D (antibody, V domains shown)
VH: [about 120 residues with changes skipped]
VL: B1 VL
B7: VH-Y052K/VL-A032D (antibody, V domains shown)
VH: [about 120 residues with changes skipped]
VL: B1 VL
notes: also called Y052K/A032D

Target: T1, recombinant human HER2 antigen (human, UniProt P04626, in part)
T1 construct: also called human HER2 protein
Assay: pH range ELISA, IgG at 100 ng/mL on plate-coated recombinant human HER2; pH of 50% binding activity (pH 6.0 = 100%)

Binder | pH Inflection Point Calculation [pH]
B1 | 6.22
B2 | 6.05
B3 | 6.3
B4 | 6.22
B5 | 6.46
B6 | 6.13
B7 | 6.22
